Values of other authors in US20240118265A1, “MATERIALS AND METHODS TO IMPROVE IN VITRO TOXICITY PREDICTIONS” (priority 2022, published 2024).
Some compounds may have been tested in ways that are not shown here.

Assays:
eye = details: GHS category; cited from earlier work
cultured epithelium = details: without DM test; cited from earlier work

Substance: Ammonium nitrate
- in vivo GHS (eye): Cat. 2
- Short Time Exposure (STE) prediction versus in vivo (cultured epithelium): false negatives
